Measured values taken from patent US9029127B2, “Method of degrading TBP using a photosynthetic bacterial strain” (priority 2003, dated 2015).

Columns and labels:
Rp. palustris ΔpRpa1 = assay: Growth and TBP degradation of the plasmid-free Rp. palustris strain; format: cell-based, Rhodopseudomonas palustris; settings: plasmid-free strain compared with the wild-type strain
[1] = tested on: proteins extracted from Rp. palustris CGA009; assay: TBP degradation by cell extracts and protein fractions (enzyme assays); format: biochemical, Rhodopseudomonas palustris; settings: crude cell extract, 40° C., Michaelis-Menten fit
[2] = tested on: Rp. palustris CGA009 (ATCC BAA-98); assay: Growth of Rp. palustris CGA009 in the presence of TBP (OD660)
[3] = tested on: Rp. palustris CGA009 (ATCC BAA-98); assay: TBP degradation by Rp. palustris CGA009 cultures (residual TBP by HPLC); settings: 2 mM TBP
[4] = cited from earlier work

**Q.** What does the source list for `CCCCOP(=O)(OCCCC)OCCCC`?
**A.** growth in a medium containing TBP (Rp. palustris ΔpRpa1): grows in a medium containing TBP, like the wild-type strain; Kmap (apparent TBP concentration for half the maximum activity) [1]: 2.6 ± 0.4 mM and 2.6 mM; Vmap (apparent maximum rate) [1]: 0.48 ± 0.04 mM/h and 0.48 mM/h; inhibition of bacterial growth ([2]; TBP concentrations of the order of 0.1 to 2 mM): no inhibition of bacterial growth; growth of the strain in the presence of TBP ([2]; strict anaerobiosis, 2 mM TBP): no growth is observed; amplitude of TBP degradation (monophasic) ([3]; aerobiosis): 28%; initial TBP consumption rate ([3]; aerobiosis): 13 µmol/L/h; amplitude of TBP degradation, first exponential ([3]; microanaerobiosis): 23%; amplitude of TBP degradation, second exponential ([3]; microanaerobiosis): 77%; initial TBP consumption rate ([3]; microanaerobiosis): 15 µmol/L/h; theoretical maximum solubility of TBP in water ([4]; 25° C.): 1000 mg per liter; solubility of TBP in water [4]: approximately 2.5 mM

Several values for one entry are separate records, joined by “and”; a condition that tells them apart may be missing. Equal values may be shown once.
